# Test results reported in paper PMC6040060, “Identification of a new alanine racemase in Salmonella Enteritidis and its contribution to pathogenesis” (Gut Pathogens, 2018).
# Columns and labels:
# [1] = system: C[C@@H](N)C(=O)O; test: purified protein; conditions: D to L direction, 10 μM PLP, 2.5 mM NAD+, Tris-HCl pH 8.0, 37 °C
# [2] = system: C[C@H](N)C(=O)O; test: purified protein; conditions: L to D direction, 10 μM PLP, Tris-HCl pH 8.0, 37 °C
substance,measurement,setting,value
Alr (Salmonella enterica subsp. enterica serovar Typhi),Km,[1],66.6 ± 4.3 mM
same,Km,[2],62.1 ± 4 mM
